Test results reported in publication PMC4762884 (Nature Communications, 2016).

Molecular target: the molecule itself
Test: non-reducing SDS-PAGE with immunoblotting

B1: Stimulator of interferon genes (STING), endogenous in THP1 cells (natural protein)
chain: MPHSSLHPSIPCPRGHGAQKAALVLLSACLVTLWGLGEPPEHTLRYLVLHLASLQLGLLLNGVCSLAEELRHIHSRYRGSYWRTVRACLGCPLRRGALLLLSIYFYYSLPNAVGPPFTWMLALLGLSQALNILLGLKGLAPAEISAVCEKGNFNVAHGLAWSYYIGYLRLILPELQARIRTYNQHYNNLLRGAVSQRLYILLPLDCGVPDNLSMADPNIRFLDKLPQQTGDHAGIKDRVYSNSIYELLENGQRAGTCVLEYATPLQTLFAMSQYSQAGFSREDRLEQAKLFCRTLEDILADAPESQNNCRLIAYQEPADDSSFSLSQEVLRHLRQEEKEEVTVGSLKTSAVPSTSTMSQEPELLISGMEKPLPLRTDFS
notes: source: endogenous, THP1 lysate
For B1, the “stoichiometry N” value was 2.
